{
  "source": "paper PMC8424805",
  "about": "“CGRP outflow into jugular blood and cerebrospinal fluid and permeance for CGRP of rat dura mater” (The Journal of Headache and Pain, 2021)",
  "key": {"[1]": {"settings": "cited from earlier work", "excerpt": "Compared to the high CGRP concentration applied onto the dura mater, the increase in CGRP in the jugular plasma and the CSF was very small. This may be due, at least in part, to some important limitations in our experiments. First, the jugular catheter was placed in proximal direction to collect blood from the internal jugular vein. Different to humans and cats, however, this vein is very thin in rat and thus may transport little amounts of blood from intracranial tissues to the cranial vena cava (see Fig. 1A). The main outflow of blood collected in the sinus system is via the anterior ..."}, "(rat) meningeal arteries": {"test_system": "(rat) meningeal arteries", "settings": "infusion of 1 μg/kg CGRP; cited from earlier work", "protocol": "(§1) In accordance with earlier studies, the high concentration of 10 μM CGRP applied to the dura mater caused only mild increases in meningeal blood flow and no significant increase in cortical flow. There is striking discrepancy compared with the high sensitivity of isolated (human) cerebral arteries to CGRP with a half-maximal relaxation effect of about 0.1-1 nM [57, 58] or vasodilatation by 80% of (rat) meningeal arteries caused by infusion of 1 μg/kg CGRP, which is in the same molar range when calculated for its distribution in the extracellular compartments. Ther ..."}, "[2]": {"test_system": "isolated (human) cerebral arteries", "settings": "read-out: Half-maximal relaxation effect; cited from earlier work", "protocol": "as §1"}, "systemic blood pressure": {"test_system": "systemic blood pressure", "test": "Systemic blood pressure in the femoral artery after topical CGRP", "format": "in vivo, rat", "settings": "topical application of CGRP 10 μM onto dura mater; repeated measures ANOVA p = 0.83", "excerpt": "(§2) Animals were anesthetized with 4% isoflurane (Forene, Abott, Wiesbaden, Germany) in a closed box administered with an evaporator system (Vapor 19.3, Dräger, Lübeck, Germany) and continued with 2.5% isoflurane supplied through a tight mask. After tracheotomy the animals were ventilated via a tracheal tube throughout the experiment with 2% isoflurane in oxygen-enriched room air to maintain a constant depth of anesthesia, constant blood pressure and failing motor reflexes upon noxious stimulation. A cannula connected to a pressure transducer was introduced into the exposed right femoral artery and fixed by ligatures. For systemic administration of substances, a venous catheter was inserted into the right femoral vein accordingly. […] Throughout the experiment vital parameters such as mean blood pressure, body temperature, respiratory rate and expiratory CO2 levels were monitored. The body temperature was recorded with a rectal probe and kept at 37 – 37.5 °C with a feedback-controlled heating plate (TKM 0902, Föhr Medical Instruments, Frankfurt, Germany) on which the animal’s body rested. […]\n(§3) Blood flow was recorded by a laser Doppler system at a sampling rate of 10 Hz (DRT4, Moor Instruments, Axminster, U.K.) with needle type probes (tip diameter 0.8 mm). […] Blood flow was monitored and the experiment started only when the flow was constant, which lasted about 30 min. […]"}, "[3]": {"test_system": "cerebral blood flow around the middle cortical artery", "test": "Cortical blood flow, laser Doppler recording after topical CGRP", "format": "in vivo, rat", "excerpt": "as §2, §3"}, "[4]": {"test": "Ex vivo permeance of the dura mater for CGRP (trepanned skull in glass well, EIA)", "format": "in vitro ADME, rat", "protocol": "Each of the final CSF and plasma samples was processed using the EIA for human CGRP according to the instructions of the manufacturer (Bertin Pharma/SPIbio, Montigny le Bretonneux, France). The EIA is based on a double-antibody sandwich technique with monoclonal antibodies binding the CGRP molecule; the tracer antibody is conjugated with acetylcholine esterase converting Ellman’s reagent to a colour, the absorbance of which is measured by a photo-spectrometer (Opsys MR, Dynex Technologies, Denkendorf, Germany). The assay has full cross-reactivity also for rat CGRP with a difference in the range of the intra-assay variation and is detecting both α- and β-CGRP with the same sensitivity. For plasma samples 5 pg/mL is the lower limit of detection according to the manufacturer’s information. The CGRP concentrations in the original CSF and the plasma samples were calculated in pg/mL considering the added volume of EIA buffer.\nAnimals were exposed to 5% isoflurane in a closed box administered with an evaporator, followed by intraperitoneal injection of 180 mg/kg sodium thiopental, which induced deep anaesthesia with a minimum of vital functions (slow and flat ventilation, slow heart rate). The head of the animals was fixed in a stereotactic frame, the skin of the head was incised in the sagittal line and the skin flaps extended. The parietal periosteum was removed with an electric coagulator and the parietal bone on both sides trepanned with a dental drill under liquid cooling until a thin layer of bone was left, which was carefully removed with a fine forceps without causing any lesion of the parietal dura mater. Then the animal was exsanguinated, the head was separated, skinned and freed from muscles as far as possible. The skull was cut horizontally in a plane below the temporal fossa separating the apical from the basal skull and the brain was carefully removed, so that the transparent dura mater of the trepanned parietal region was visible from inside the cranium. The cranium was washed in SIF for 30 min at room temperature. After checking with SIF that the dura mater spanning the parietal bone had no leak, the cranium was mounted in a glass well with the inner surface of the dura side up (Fig. 2A). The well was filled with 500 μL SIF, so that the outer side of the dura mater was diving into the solution. After 5 min the solutions were carefully removed without touching the tissue and were replaced by fresh SIF, which was again removed after 5 min. […]\nIf at the same time point two samples of 25 μL CSF or plasma were collected and processed with the EIA, the two CGRP values were averaged prior to further calculations. Mean ± standard error of the mean (SEM) was calculated for corresponding data of repeated experiments. […]"}, "[5]": {"test": "CGRP concentration in jugular plasma after application of CGRP onto the exposed dura mater in vivo (EIA)", "settings": "jugular vein catheter, EDTA plasma, rat, mean ± SEM, n = 4-9", "excerpt": "as §2, with “accordingly. In some experiments a third catheter was inserted into the exposed right external jugular vein and pushed forward close to the bifurcation of the subclavian and the internal jugular vein in order to take blood samples for measuring CGRP levels (Fig. 1A).” for “accordingly.”"}, "[6]": {"test_system": "meningeal blood flow around the middle meningeal artery", "test": "Meningeal blood flow, laser Doppler recording after topical CGRP", "format": "in vivo, rat", "excerpt": "as §2, §3"}, "[7]": {"test": "CGRP concentration in cerebrospinal fluid after application of CGRP onto the exposed dura mater in vivo (EIA)", "set-up": "species or system rat", "excerpt": "Animals were anesthetized with 4% isoflurane (Forene, Abott, Wiesbaden, Germany) in a closed box administered with an evaporator system (Vapor 19.3, Dräger, Lübeck, Germany) and continued with 2.5% isoflurane supplied through a tight mask. After tracheotomy the animals were ventilated via a tracheal tube throughout the experiment with 2% isoflurane in oxygen-enriched room air to maintain a constant depth of anesthesia, constant blood pressure and failing motor reflexes upon noxious stimulation. A cannula connected to a pressure transducer was introduced into the exposed right femoral artery and fixed by ligatures. For systemic administration of substances, a venous catheter was inserted into the right femoral vein accordingly. In some experiments a third catheter was inserted into the exposed right external jugular vein and pushed forward close to the bifurcation of the subclavian and the internal jugular vein in order to take blood samples for measuring CGRP levels (Fig. 1A). To prevent salivation and smooth muscle spasms, atropine sulfate (Braun Melsungen AG, Melsungen, Germany, 0.5 mg/mL 1:10 with sodium chloride 0.9%) was subcutaneously injected. Throughout the experiment vital parameters such as mean blood pressure, body temperature, respiratory rate and expiratory CO2 levels were monitored. The body temperature was recorded with a rectal probe and kept at 37 – 37.5 °C with a feedback-controlled heating plate (TKM 0902, Föhr Medical Instruments, Frankfurt, Germany) on which the animal’s body rested. The expiratory CO2 was steady at 4.5-5% by modulating the ventilation frequency between 70 and 100 strokes per minute to suppress spontaneous breathing. An ointment (Bepanthen, Bayer, Leverkusen, Germany) protected the animal’s eyes. At the end of each experiment an overdose of sodium thiopental (Trapanal, Altana, Konstanz, Germany) was i.v. injected followed by exsanguination to terminate the experiment.\nAnimals were placed in a stereotactic frame, a snout clamp and ear bars fixed the position of the head. A median incision from the forehead to the neck exposed the skull. The parietal skull was carefully trepanned on both sides using a dental drill (KaVo Dental GmbH, Biberach, Germany) with saline cooling and a fine forceps to remove the innermost layer of the bone without breaching the dura. The exposed dura mater in the cranial windows with a size of about 6 × 4 mm was protected from drying with isotonic saline. In order to gain access to the cisterna magna, in most of the experiments the neck muscles were divided in the midline and held apart with a clamp so that the atlanto-occipital ligament with the underlying dura mater was exposed and covered with isotonic saline. […]"}, "[8]": {"settings": "CGRP 1 μM topically onto dura mater, 5 experiments"}},
  "data": [
    {"substance": "Calcitonin gene-related peptide [CGRP]", "values": [
      {"measurement": "Half-live of CGRP in circulating blood", "setting": "[1]", "value": "~10", "unit": "min"},
      {"measurement": "Vasodilatation of meningeal arteries", "setting": "(rat) meningeal arteries", "value": 80, "unit": "%"},
      {"measurement": "EC50", "setting": "[2]", "value": "100 to 1000", "unit": "pM"},
      {"measurement": "Change in systemic blood pressure measured in the femoral artery", "setting": "systemic blood pressure", "value": "did not lead to significant changes"},
      {"measurement": "Change in cortical blood flow", "setting": "[3]; [8]", "value": "not followed by a change"},
      {"measurement": "Cortical blood flow normalized to baseline, peak", "setting": "[3]; CGRP 10 μM topically onto dura mater, within 5 min after application, mean ± SEM, not significantly different to baseline", "value": "102.6 ± 3.9", "unit": "%"},
      {"measurement": "CGRP level inside the skull (arachnoidal side) relative to level in the glass well (periostal side)", "setting": "[4]; 1 nM CGRP applied on arachnoidal side, after 5 min, SIF pH 7.4, 500 μL well, n = 9, p < 0.001, decreasing difference after 15 min", "value": "more than double"},
      {"measurement": "Arachnoidal CGRP concentration relative to periostal CGRP concentration", "setting": "[4]; SIF and 1 pM CGRP applied on arachnoidal side, 5 and 15 min, room temperature SIF pH 7.4, n = 9, no significant differences", "value": "roughly half"},
      {"measurement": "Fraction of applied CGRP concentration measured in the bath solution outside", "setting": "[4]; after application of CGRP at 1 ng/mL (so in the source) on arachnoidal side, ex vivo rat dura", "value": "only a small fraction"},
      {"measurement": "Diffusion of CGRP through the dura mater into the glass well", "setting": "[4]; nanomolar (1 nM) CGRP on arachnoidal side, 5 and 15 min, n = 9", "value": "diffuse only slowly through the dura mater"},
      {"measurement": "CGRP plasma concentration (jugular)", "setting": "[5]; 5 min after application of CGRP 10 μM (40 μl) onto dura mater", "value": "108.3 ± 21.7", "unit": "pg/mL"},
      {"measurement": "CGRP plasma concentration (jugular)", "setting": "[5]; 15 min later, i.e. 20 min after application of CGRP 10 μM (40 μl) onto dura mater", "value": "135.2 ± 59.5", "unit": "pg/mL"},
      {"measurement": "Change in meningeal blood flow", "setting": "[6]; [8]", "value": "not followed by a change"},
      {"measurement": "Meningeal blood flow normalized to baseline", "setting": "[6]; CGRP 10 μM topically onto dura mater, within 5 min after application, baseline = minute prior to application, mean ± SEM, significant from the third minute", "value": "107.4 ± 3.8", "unit": "%"},
      {"measurement": "CGRP concentration in the last CSF sample", "setting": "[7]; 35 min after 40 μl human α-CGRP 10 μM in SIF applied onto exposed parietal dura mater, CSF from cisterna magna, anaesthetised Wistar rat, EIA, mean ± SEM, n = 10", "value": "191.5 ± 62.9", "unit": "pg/mL"},
      {"measurement": "Increase of CGRP in the CSF compared to baseline", "setting": "[7]; 35 min after dural application of CGRP 10 μM, rat in vivo, EIA", "value": "three-fold increase"},
      {"measurement": "Measured CGRP concentration at the pial arteries below the dura (CSF)", "setting": "[7]; after topical CGRP 10 μM onto dura mater, rat in vivo, EIA, range stated in the discussion", "value": "100 to 200", "unit": "pg/mL"},
      {"measurement": "Measured CGRP concentration at the pial arteries below the dura (CSF), molar", "setting": "[7]; after topical CGRP 10 μM onto dura mater, rat in vivo, converted from pg/mL", "value": "20 to 40", "unit": "pM"}
    ]}
  ]
}
